Species: Homo sapiens
Test: Selectivity ratio of IC50 for HDAC8 catalytic domain (unknown origin) to IC50 for HDAC6 (unknown origin)

N#Cc1cccc(-c2cn(CCCCCn3cccc(O)c3=S)nn2)c1
Ratio IC50: 8
